Measured values taken from PMC11272584 (Nature Metabolism, 2024).
Where a chain is given by its changes, count along the chain named.

Legend:
GIPR R190Q = target: T1, GIPR R190Q (Homo sapiens, UniProt P48546, R190Q); details: GIPR R190Q (2.67), mean, n = 6, duplicate
T1 sequence (P48546 22-466 R190Q): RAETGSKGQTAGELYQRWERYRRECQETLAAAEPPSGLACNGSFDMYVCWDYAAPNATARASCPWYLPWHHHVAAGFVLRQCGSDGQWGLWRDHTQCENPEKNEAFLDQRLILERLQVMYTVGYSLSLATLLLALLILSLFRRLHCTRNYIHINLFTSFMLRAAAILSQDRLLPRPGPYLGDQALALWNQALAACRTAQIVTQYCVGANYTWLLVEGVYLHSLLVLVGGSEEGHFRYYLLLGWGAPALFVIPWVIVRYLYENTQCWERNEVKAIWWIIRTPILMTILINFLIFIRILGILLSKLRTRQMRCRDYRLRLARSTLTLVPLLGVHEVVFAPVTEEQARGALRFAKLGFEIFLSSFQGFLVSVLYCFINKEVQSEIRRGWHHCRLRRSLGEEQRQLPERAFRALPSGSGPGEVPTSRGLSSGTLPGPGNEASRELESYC

GIPR R183Q = target: T2, GIPR R183Q (Homo sapiens, UniProt P48546, R183Q); experiment: cAMP accumulation; format: cell-based; set-up: host or cells: HEK293
T2 sequence (P48546 22-466 R183Q): T1 sequence (P48546 22-466 R190Q) with R162Q, Q169R

GIPR I299V = target: T3, GIPR I299V (Homo sapiens, UniProt P48546, I299V); details: GIPR I299V (5.39), mean, n = 3, duplicate
T3 sequence (P48546 22-466 I299V): T1 sequence (P48546 22-466 R190Q) with Q169R, I278V

GIPR A294V = target: T4, GIPR A294V (Homo sapiens, UniProt P48546, A294V); details: GIPR A294V (ECL2), mean, n = 3, duplicate
T4 sequence (P48546 22-466 A294V): T1 sequence (P48546 22-466 R190Q) with Q169R, A273V

GIPR M67R = target: T5, GIPR M67R (Homo sapiens, UniProt P48546, M67R); details: GIPR M67R (ECD), mean, n = 6, duplicate
T5 sequence (P48546 22-466 M67R): T1 sequence (P48546 22-466 R190Q) with M46R, Q169R

In the case of “glucose-dependent insulinotropic polypeptide [GIP]”, the “logEC50 (Arrestin)” value (GIPR R190Q; Hill slope 1.0) is reported as -8.9, the “Arrestin (Emax)” value (GIPR R190Q; normalized to WT GIPR) is reported as 11 and the “cAMP (Emax)” value (GIPR R183Q; HEK293, GIP(1–42) 1 pM–100 nM, 30 min 37 °C, mean of n = 3) is reported as 118 % of WT GIPR activity. The “logEC50 (cAMP)” value (GIPR R183Q; HEK293, Hill slope 1.0, mean of n = 3) was -8.0, the “logEC50 (Arrestin)” value (GIPR I299V; Hill slope 1.0) was -9.0 and the “Arrestin (Emax)” value (GIPR I299V; normalized to WT GIPR) was 76. The “logEC50 (Arrestin)” value (GIPR A294V; Hill slope 1.0) was -9.0, the “Arrestin (Emax)” value (GIPR A294V; normalized to WT GIPR) was 63 and the “logEC50 (Arrestin)” value (GIPR M67R; Hill slope 1.0) was -8.2. The “Arrestin (Emax)” value (GIPR M67R; normalized to WT GIPR) was 145.
